# Key:
# The chains behind the UniProt entries cited, without tags or fusion partners. Residues count along the entry.
# UniProt O60674, whole entry, stated change not applied: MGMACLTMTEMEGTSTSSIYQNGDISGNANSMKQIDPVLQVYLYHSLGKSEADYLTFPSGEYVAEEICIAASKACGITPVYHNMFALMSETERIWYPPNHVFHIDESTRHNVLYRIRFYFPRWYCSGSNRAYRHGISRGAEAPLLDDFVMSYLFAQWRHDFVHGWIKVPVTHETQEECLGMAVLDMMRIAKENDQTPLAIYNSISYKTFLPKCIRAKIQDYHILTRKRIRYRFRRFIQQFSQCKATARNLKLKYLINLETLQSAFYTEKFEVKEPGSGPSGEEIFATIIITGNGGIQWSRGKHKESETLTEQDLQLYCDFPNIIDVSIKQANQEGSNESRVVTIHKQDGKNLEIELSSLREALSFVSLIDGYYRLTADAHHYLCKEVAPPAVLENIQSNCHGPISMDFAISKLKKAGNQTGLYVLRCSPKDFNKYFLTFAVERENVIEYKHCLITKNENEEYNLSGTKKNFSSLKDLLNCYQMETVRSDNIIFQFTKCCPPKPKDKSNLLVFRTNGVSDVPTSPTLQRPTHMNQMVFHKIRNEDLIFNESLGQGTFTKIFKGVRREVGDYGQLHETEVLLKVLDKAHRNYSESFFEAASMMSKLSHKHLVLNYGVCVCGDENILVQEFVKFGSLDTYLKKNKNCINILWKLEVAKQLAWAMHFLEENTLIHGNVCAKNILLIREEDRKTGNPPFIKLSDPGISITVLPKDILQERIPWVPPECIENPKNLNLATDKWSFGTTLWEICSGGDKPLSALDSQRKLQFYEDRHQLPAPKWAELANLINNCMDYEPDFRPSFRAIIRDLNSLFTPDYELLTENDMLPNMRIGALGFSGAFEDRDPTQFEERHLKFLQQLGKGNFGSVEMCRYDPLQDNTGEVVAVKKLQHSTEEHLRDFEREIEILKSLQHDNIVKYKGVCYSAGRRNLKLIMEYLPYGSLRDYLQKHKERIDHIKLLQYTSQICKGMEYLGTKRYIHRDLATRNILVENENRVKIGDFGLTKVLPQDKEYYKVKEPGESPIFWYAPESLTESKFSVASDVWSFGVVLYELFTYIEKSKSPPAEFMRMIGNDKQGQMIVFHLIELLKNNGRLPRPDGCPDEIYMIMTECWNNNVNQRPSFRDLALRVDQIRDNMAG
# UniProt Q13554, whole entry, stated change not applied: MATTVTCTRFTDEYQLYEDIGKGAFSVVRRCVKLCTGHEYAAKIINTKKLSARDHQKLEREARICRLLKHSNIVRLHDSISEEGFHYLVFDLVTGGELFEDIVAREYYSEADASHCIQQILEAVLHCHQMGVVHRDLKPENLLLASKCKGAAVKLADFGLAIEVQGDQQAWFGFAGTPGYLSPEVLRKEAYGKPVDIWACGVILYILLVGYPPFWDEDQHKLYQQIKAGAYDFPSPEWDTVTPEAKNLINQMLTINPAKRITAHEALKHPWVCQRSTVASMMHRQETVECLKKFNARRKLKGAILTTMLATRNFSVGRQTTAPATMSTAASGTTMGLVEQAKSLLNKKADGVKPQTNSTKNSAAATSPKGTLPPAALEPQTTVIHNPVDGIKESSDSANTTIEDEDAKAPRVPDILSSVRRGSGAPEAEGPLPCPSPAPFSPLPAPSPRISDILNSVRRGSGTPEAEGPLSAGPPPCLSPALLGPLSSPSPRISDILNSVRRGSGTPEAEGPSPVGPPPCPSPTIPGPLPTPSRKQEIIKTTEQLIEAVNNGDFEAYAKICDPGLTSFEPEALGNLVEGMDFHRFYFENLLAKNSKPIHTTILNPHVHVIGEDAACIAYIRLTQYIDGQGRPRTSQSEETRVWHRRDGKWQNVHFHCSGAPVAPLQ
# UniProt P06239, whole entry, stated change not applied: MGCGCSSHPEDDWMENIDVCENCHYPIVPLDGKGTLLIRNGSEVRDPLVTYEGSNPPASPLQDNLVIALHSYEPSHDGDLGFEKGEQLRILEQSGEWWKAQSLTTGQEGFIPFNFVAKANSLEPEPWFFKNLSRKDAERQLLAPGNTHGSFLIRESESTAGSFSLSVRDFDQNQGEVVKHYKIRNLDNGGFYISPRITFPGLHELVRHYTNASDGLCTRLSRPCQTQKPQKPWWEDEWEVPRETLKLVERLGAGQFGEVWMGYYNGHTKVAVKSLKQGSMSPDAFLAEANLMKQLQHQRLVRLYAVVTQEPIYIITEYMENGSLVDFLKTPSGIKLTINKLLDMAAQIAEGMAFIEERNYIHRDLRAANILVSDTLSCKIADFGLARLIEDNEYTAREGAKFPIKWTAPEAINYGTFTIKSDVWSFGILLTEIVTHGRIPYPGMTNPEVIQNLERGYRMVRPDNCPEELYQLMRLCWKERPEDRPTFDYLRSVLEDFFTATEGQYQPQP
# UniProt P07948, whole entry, stated change not applied: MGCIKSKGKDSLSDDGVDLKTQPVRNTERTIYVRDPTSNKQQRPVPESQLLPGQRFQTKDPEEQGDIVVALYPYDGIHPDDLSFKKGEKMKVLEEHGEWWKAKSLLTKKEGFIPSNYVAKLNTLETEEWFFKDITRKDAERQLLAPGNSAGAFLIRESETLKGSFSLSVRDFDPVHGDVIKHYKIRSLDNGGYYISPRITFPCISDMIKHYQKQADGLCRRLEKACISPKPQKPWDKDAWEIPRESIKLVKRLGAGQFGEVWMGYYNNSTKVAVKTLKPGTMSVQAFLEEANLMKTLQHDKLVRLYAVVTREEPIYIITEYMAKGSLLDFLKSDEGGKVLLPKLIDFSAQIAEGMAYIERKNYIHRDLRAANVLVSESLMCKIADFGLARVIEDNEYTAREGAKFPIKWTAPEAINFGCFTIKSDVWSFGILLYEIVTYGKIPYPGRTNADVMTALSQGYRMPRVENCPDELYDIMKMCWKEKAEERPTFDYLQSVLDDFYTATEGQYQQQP
# UniProt P54760, 16-987, stated change not applied: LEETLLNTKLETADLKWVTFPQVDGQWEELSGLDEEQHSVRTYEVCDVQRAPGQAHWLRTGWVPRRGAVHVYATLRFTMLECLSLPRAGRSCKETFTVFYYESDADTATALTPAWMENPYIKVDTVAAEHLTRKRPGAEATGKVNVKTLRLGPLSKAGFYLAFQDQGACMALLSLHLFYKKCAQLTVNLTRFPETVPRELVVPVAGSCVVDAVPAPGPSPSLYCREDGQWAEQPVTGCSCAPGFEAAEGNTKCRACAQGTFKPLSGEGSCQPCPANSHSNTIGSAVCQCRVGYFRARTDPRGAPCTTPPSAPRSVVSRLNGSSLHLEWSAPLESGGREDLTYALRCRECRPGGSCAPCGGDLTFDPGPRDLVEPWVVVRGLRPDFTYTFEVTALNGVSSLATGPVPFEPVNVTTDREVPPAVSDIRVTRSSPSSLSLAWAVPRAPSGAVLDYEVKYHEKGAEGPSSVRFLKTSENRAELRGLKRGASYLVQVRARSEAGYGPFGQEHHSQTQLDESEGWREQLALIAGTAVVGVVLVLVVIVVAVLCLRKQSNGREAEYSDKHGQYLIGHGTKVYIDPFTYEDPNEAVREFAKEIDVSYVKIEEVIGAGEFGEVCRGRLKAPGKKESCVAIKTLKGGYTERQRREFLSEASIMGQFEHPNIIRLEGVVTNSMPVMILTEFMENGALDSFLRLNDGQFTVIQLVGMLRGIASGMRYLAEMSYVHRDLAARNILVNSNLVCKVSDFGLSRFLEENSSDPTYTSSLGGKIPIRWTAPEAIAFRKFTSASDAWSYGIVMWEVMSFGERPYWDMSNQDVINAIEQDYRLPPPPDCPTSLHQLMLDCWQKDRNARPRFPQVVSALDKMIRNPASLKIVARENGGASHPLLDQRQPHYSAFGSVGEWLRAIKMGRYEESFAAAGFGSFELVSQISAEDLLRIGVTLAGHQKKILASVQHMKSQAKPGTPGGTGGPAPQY
# UniProt Q15208, whole entry, stated change not applied: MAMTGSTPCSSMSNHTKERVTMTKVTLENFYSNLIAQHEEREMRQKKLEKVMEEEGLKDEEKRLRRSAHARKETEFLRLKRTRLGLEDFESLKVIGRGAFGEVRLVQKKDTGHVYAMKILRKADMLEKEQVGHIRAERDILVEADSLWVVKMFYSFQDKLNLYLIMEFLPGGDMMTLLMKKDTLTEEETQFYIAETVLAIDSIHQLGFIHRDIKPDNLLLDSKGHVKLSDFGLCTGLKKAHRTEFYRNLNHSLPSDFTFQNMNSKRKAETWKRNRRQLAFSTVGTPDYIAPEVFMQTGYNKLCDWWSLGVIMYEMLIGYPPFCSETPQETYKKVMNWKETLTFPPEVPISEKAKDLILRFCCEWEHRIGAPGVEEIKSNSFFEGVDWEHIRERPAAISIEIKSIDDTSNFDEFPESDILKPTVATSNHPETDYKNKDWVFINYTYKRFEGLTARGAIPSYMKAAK
# UniProt Q16832, 22-855, stated change not applied: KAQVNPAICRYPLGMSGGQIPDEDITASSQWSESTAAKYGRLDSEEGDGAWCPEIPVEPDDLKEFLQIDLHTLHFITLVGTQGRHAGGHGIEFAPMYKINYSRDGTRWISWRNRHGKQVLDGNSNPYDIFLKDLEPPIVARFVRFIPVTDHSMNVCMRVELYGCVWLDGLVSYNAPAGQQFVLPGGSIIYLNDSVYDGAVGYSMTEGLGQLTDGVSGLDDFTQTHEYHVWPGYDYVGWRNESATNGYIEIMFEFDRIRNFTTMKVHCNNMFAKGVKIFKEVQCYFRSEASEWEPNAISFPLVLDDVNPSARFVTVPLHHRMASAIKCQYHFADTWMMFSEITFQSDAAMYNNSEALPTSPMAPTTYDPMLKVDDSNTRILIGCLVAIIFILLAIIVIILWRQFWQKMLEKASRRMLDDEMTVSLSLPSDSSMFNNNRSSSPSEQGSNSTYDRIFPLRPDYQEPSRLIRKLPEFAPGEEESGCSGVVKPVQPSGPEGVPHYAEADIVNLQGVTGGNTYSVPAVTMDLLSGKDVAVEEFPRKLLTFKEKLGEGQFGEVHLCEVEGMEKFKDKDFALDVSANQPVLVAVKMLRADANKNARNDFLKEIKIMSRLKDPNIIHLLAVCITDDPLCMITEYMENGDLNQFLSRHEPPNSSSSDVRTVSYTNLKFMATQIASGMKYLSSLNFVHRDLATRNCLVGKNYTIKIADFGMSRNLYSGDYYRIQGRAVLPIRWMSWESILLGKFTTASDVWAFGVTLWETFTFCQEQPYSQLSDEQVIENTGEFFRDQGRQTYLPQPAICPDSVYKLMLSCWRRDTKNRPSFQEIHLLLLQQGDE
# UniProt Q9UKE5, whole entry, stated change not applied: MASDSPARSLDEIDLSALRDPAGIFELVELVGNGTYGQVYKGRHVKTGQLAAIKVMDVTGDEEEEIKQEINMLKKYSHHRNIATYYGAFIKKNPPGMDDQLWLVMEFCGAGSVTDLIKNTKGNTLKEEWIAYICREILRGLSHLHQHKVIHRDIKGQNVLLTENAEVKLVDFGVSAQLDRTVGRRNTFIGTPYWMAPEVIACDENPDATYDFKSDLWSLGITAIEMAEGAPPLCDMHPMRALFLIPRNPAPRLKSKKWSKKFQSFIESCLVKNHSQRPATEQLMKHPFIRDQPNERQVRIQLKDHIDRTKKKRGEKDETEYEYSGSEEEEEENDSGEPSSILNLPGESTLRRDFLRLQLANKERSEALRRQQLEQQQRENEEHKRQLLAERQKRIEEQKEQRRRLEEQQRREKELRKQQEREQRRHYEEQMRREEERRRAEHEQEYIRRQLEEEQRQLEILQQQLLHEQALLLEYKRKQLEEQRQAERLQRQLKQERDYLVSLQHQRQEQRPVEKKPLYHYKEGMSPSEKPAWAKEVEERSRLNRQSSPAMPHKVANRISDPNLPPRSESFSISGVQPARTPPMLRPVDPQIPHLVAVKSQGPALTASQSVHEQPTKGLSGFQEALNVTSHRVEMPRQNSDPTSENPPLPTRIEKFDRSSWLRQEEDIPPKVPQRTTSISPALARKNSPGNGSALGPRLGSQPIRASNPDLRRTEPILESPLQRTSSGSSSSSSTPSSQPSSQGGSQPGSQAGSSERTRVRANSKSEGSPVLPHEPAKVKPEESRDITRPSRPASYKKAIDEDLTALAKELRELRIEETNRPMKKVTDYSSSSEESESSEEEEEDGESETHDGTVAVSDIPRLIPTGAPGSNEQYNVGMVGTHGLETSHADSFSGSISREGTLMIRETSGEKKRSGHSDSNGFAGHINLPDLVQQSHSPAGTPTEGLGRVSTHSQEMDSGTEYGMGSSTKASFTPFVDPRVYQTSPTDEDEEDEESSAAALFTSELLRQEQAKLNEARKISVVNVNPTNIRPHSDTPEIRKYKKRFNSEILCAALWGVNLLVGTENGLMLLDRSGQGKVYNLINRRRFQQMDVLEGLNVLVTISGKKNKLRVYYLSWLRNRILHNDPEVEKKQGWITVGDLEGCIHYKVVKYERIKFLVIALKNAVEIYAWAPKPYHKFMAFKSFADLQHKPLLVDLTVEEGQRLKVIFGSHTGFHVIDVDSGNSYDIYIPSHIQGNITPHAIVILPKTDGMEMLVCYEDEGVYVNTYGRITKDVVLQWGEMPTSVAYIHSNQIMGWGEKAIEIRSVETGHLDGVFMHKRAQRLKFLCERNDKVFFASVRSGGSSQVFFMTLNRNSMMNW
# Experiment in all cases: Kinase profiling in a biochemical assay panel (mobility shift assays and ELISA), %-inhibition at 1 μM; selectivity entropy
# Details in all cases: 1 µM
# [1] = molecular target: panel of more than 300 wild-type and mutant kinases (313 kinase panel) (Homo sapiens, UniProt O60285)
# [2] = molecular target: panel of more than 300 wild-type and mutant kinases (313 kinase panel) (Homo sapiens, UniProt O60674)
# [3] = molecular target: panel of more than 300 wild-type and mutant kinases (313 kinase panel) (Homo sapiens, UniProt P23458)
# [4] = molecular target: panel of more than 300 wild-type and mutant kinases (313 kinase panel) (Homo sapiens, UniProt P51451)
# [5] = molecular target: panel of more than 300 wild-type and mutant kinases (313 kinase panel) (Homo sapiens, UniProt Q13554)
# [6] = molecular target: panel of more than 300 wild-type and mutant kinases (313 kinase panel) (Homo sapiens, UniProt Q16620)
# [7] = molecular target: panel of more than 300 wild-type and mutant kinases (313 kinase panel) (Homo sapiens, UniProt O00418)
# [8] = molecular target: panel of more than 300 wild-type and mutant kinases (313 kinase panel) (Homo sapiens, UniProt P05771)
# [9] = molecular target: panel of more than 300 wild-type and mutant kinases (313 kinase panel) (Homo sapiens, UniProt P06239)
# [10] = molecular target: panel of more than 300 wild-type and mutant kinases (313 kinase panel) (Homo sapiens, UniProt P07948)
# [11] = molecular target: panel of more than 300 wild-type and mutant kinases (313 kinase panel) (Homo sapiens, UniProt P15056)
# [12] = molecular target: panel of more than 300 wild-type and mutant kinases (313 kinase panel) (Homo sapiens, UniProt P22455, N535K)
# [13] = molecular target: panel of more than 300 wild-type and mutant kinases (313 kinase panel) (Homo sapiens, UniProt P54646)
# [14] = molecular target: panel of more than 300 wild-type and mutant kinases (313 kinase panel) (Homo sapiens, UniProt P54760)
# [15] = molecular target: panel of more than 300 wild-type and mutant kinases (313 kinase panel) (Homo sapiens, UniProt Q12852)
# [16] = molecular target: panel of more than 300 wild-type and mutant kinases (313 kinase panel) (Homo sapiens, UniProt Q13163)
# [17] = molecular target: panel of more than 300 wild-type and mutant kinases (313 kinase panel) (Homo sapiens, UniProt Q15208)
# [18] = molecular target: panel of more than 300 wild-type and mutant kinases (313 kinase panel) (Homo sapiens, UniProt Q15831)
# [19] = molecular target: panel of more than 300 wild-type and mutant kinases (313 kinase panel) (Homo sapiens, UniProt Q16832)
# [20] = molecular target: panel of more than 300 wild-type and mutant kinases (313 kinase panel) (Homo sapiens, UniProt Q9H093)
# [21] = molecular target: panel of more than 300 wild-type and mutant kinases (313 kinase panel) (Homo sapiens, UniProt Q9P289)
# [22] = molecular target: panel of more than 300 wild-type and mutant kinases (313 kinase panel) (Homo sapiens, UniProt Q9UKE5)
# [23] = molecular target: panel of more than 300 wild-type and mutant kinases (313 kinase panel) (Homo sapiens, UniProt Q9UM73)
smiles,measurement,setting,value
COc1cc2ncnc(Nc3ccc(F)c(Cl)c3)c2cc1OCCCN1CCOCC1 [gefitinib],%-inhibition of NuaK1,[1],13%
same,%-inhibition of JAK2,[2],5%
same,%-inhibition of JAK1,[3],4.61%
same,"%-inhibition, BLK",[4],43%
same,"%-inhibition, CaMK2β",[5],-5%
same,%-inhibition of TRKB,[6],-4.75%
C[C@@H]1CCN(C(=O)CC#N)C[C@@H]1N(C)c1ncnc2[nH]ccc12 [tofacitinib],%-inhibition of EEF2K,[7],-4.3%
same,%-inhibition of NuaK1,[1],39%
same,%-inhibition of PKCβ1,[8],7%
same,%-inhibition of LCK,[9],36%
same,%-inhibition of LYNa,[10],12%
same,"%-inhibition, BRAF",[11],6.51%
same,%-inhibition of FGFR4(N535K),[12],2.75%
same,"%-inhibition, AMPKα2/β1/γ1",[13],-3.37%
same,%-inhibition of EPHB4,[14],-2.47%
same,%-inhibition of DLK,[15],-24%
same,%-inhibition of MAP2K5,[16],0.925%
same,%-inhibition of NDR1,[17],22%
same,%-inhibition of LKB1,[18],-5%
same,%-inhibition of TRKB,[6],12%
same,%-inhibition of DDR2,[19],-0.706%
same,%-inhibition of NuaK2,[20],57%
same,%-inhibition of MST4,[21],-2.22%
same,%-inhibition of TNIK,[22],-1.89%
same,"%-inhibition, ALK",[23],0.874%

# — article PMC3961306, “Comparison of the Cancer Gene Targeting and Biochemical Selectivities of All Targeted Kinase Inhibitors Approved for Clinical Use” (PLoS ONE, 2014)
